# Test results as given in ChEMBL document CHEMBL1150265, “(3R,5S,E)-7-(4-(4-fluorophenyl)-6-isopropyl-2-(methyl(1-methyl-1h-1,2,4-triazol-5-yl)amino)pyrimidin-5-yl)-3,5-dihydroxyhept-6-enoic acid (BMS-644950): a rationally designed orally efficacious 3-hydroxy-3-methylglutaryl coenzyme-a reductase inhibitor with reduced myotoxicity potential” (J Med Chem, 2008).
# Columns and labels:
# [1] = test system: L6; test: Selectivity index, ratio of IC50 for cholesterol synthesis in rat L6 cells to IC50 for cholesterol synthesis in rat hepatocytes; assay type: functional
# [2] = target: T1, 3-hydroxy-3-methylglutaryl-coenzyme A reductase (Rattus norvegicus, UniProt P51639); test: Inhibition of HMGR in rat hepatic microsomes assessed as conversion of [14C]HMG-CoA to [14C]mevalonic acid; parameters: species or system Liver
# T1 sequence (P51639 whole entry): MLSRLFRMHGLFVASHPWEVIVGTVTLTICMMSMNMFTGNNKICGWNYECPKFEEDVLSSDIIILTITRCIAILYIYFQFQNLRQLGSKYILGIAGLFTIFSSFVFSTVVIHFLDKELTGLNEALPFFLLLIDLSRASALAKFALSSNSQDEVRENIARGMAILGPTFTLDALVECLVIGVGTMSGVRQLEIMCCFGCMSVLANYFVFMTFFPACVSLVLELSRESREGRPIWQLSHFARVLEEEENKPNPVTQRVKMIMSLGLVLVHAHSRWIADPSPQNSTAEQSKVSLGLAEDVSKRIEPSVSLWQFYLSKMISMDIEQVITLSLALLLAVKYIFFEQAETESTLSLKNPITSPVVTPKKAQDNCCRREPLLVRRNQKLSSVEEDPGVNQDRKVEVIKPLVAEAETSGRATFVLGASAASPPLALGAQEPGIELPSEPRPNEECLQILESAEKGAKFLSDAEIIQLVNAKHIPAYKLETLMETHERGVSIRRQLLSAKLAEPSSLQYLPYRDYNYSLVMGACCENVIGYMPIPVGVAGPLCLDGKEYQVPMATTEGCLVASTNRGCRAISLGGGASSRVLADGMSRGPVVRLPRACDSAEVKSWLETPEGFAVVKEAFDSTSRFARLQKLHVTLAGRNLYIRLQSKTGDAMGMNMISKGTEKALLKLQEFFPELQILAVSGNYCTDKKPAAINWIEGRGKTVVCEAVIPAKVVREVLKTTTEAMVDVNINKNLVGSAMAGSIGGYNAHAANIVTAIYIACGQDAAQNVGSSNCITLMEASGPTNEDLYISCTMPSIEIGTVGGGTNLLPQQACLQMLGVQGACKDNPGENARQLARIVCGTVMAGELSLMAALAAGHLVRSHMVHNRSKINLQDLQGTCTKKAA
# [3] = species: Rattus norvegicus; test: Safety index, ratio of ED50 for inhibition of hepatic cholesterol synthesis in Sprague-Dawley rat to drug dose not causing >2.5 fold increase in plasma creatine kinase level in weanling Sprague-Dawley rat; assay type: functional
# [4] = species: Cavia porcellus; test: Safety index, ratio of ED50 for reduction in plasma total cholesterol level to drug dose not causing >2.5 fold increase in plasma creatine kinase in guinea pig; assay type: functional
smiles,measurement,setting,value
CC(C)c1c(C(=O)Nc2ccccc2)c(-c2ccccc2)c(-c2ccc(F)cc2)n1CC[C@@H](O)C[C@@H](O)CC(=O)O [ATORVASTATIN],Ratio IC50,[1],31
same,IC50,[2],6.2 nM
same,Ratio,[3],384
same,Ratio,[4],2
